System: dorsal root ganglion (DRG) neurons

Structure (SMILES): CC(C)C[C@H](NC(=O)[C@H](Cc1ccccc1)NC(=O)CNC(=O)CNC(=O)[C@@H](N)Cc1ccc(O)cc1)C(=O)O
- Alteration of action potential duration, opioid at low concentration (< nM): Prolongation
- Alteration of action potential duration, opioid at high concentration (μM): Shortening
